Measurements: PubChem BioAssay AID540303 (National Center for Advancing Translational Sciences (NCATS), 2011)
The list shows a part of the results, in another mix than the full data. Inconclusive results are not listed. Entries that show only a call come without a potency. The source made the active and inactive calls. The call rests on the fitted dose curve; in most records, active means well fitted inhibition curve with a large enough effect; inconclusive means small, poorly fitted or top-dose-only effect; inactive means no such curve, though single readings can be large or run the other way; tested in mouse RAW 264.7 cells.

test: qHTS for Inhibitors of Cell Surface uPA Generation; details: cell surface uPA generation assay; series mostly up to 38.3 µM; further: nearly all actives have a fitted effect of over 55% in size
Source text: The overall objective of this project is to perform a quantitative high throughput screen (qHTS) to identify novel compounds that inhibit the generation of cell surface urokinase activity. The urokinase plasminogen activator (uPA) is one of the two primary endogenous systems that mediate plasminogen activation into plasmin. Members of this system, including uPA and its receptor (uPAR), are overexpressed in several malignant tumors. This system plays a major role in adhesion, migration, invasion and metastasis of cancer cells. Small molecule inhibitors of the uPA system will serve as probes to understand the molecular mechanisms of the uPA cascade and better understanding the microenvironmental circumstances that facilitate the activation of plasminogen by uPA, and finally may provide novel candidate agents for anticancer drug therapy.
[…] […] Upon inhibition of the uPA activation cascade, the subsequent cell surface uPA activity-dependent translocation of LF into the cytoplasm is inhibited. ATP-Lite is used to measure intracellular ATP concentrations, which remain increased if LF entry into the cytoplasm is inhibited. This validation assay was performed using a small set of validation compounds.
NIH Chemical Genomics Center [NCGC]
NIH Molecular Libraries Probe Centers Network [MLPCN]
Assay Submitter (PI): Thomas Bugge, National Institute of Dental and Craniofacial Research, NIH
Cultured RAW 264.7 were dispensed into 1536-well clear bottom, white walled tissue culture plates at a density of 4000 cells/well and were incubated overnight (12-16 h) at 37 C in a 5% CO2 incubator. Serially diluted compounds in 23 nl DMSO were added to cells. […] Compound and reagent-treated plates were incubated for 24 h at 37 C in a 5% CO2 incubator. Perkin Elmer ATPlitetrade mark 1 step (3 ul) was then added to each well. Luminescence was detected using a Perkin Elmer ViewLuxtrade mark plate reader.
1.Dispensing RAW 264.7 cells into 1536-well, white walled tissue culture plates at a density of 4000 cells/well (4 uL).
2.Incubation at 37 C in a 5% CO2 incubator overnight.
3.Serially diluting compounds (1:5 serial dilution; 0.0024 uM to […] final concentration) in 23 nl DMSO.
5.Incubating the compound and reagent-treated plates for 24 hours at 37 C in a 5% CO2 incubator.
6.Adding ATP-Lite (3 ul).
7.Reading plates by ViewLux with an exposure length of 5 seconds.

Structure (SMILES) | Potency
O=P1(N(CCCl)CCCl)OCCCS1 (configuration not stated) | inactive
O=C(Nc1cc([As](=O)(O)O)ccc1O)c1ccccc1 | inactive
CC(C)(C)C(=O)NC(Sc1ccncn1)C(Cl)(Cl)Cl (configuration not stated) | inactive
O=[N+]([O-])c1ncn(CCn2ncnc2[N+](=O)[O-])n1 | inactive
O=[N+]([O-])c1cccc(NC2=NCC(CBr)S2)c1 (configuration not stated) | inactive
COC(=O)C1(C)COP(=O)(Nc2ccccc2)OC1 (configuration not stated) | inactive
O=C(O)CNc1ccc([As](=O)(O)O)cc1 | inactive
COc1ccc(C2=NCC(CBr)S2)cc1 (configuration not stated) | inactive
CC(=O)N1C2C3N(C(C)=O)C1C1N(C(C)=O)C(C(N1C(C)=O)N3C(C)=O)N2C(C)=O | inactive
O=[N+]([O-])c1cccc2n[nH]nc12 | inactive
Cc1ccc(NP(=O)(Oc2ccccc2)Oc2ccccc2)nc1 | inactive
O=[N+]([O-])c1cc([N+](=O)[O-])c(CCNc2ccccc2)c([N+](=O)[O-])c1 | inactive
CCc1nc2c(n1)c1c(non1O)c1c2no[n+]1[O-] | inactive
Nc1ccc([As](=O)(O)c2ccc(N)cc2)cc1 | inactive
CCN(/C(=N/P(=O)(N1CCOCC1)N1CCOCC1)N1CCOCC1)c1ccc(OC)cc1 | inactive
CC(C)=N/N=C(\N)N[N+](=O)[O-] | inactive
CN(C)C(=O)OCCc1n(C)cc[n+]1C | inactive
CC1CCN(C(=O)Oc2c(Cl)cc(Cl)c3cccnc23)CC1 | inactive
NC(=O)c1cc([N+](=O)[O-])cc([N+](=O)[O-])c1N | inactive
Cc1ccc(N/C(=N/P(=O)(N2CCOCC2)N2CCOCC2)N2CCOCC2)cc1 | inactive
COc1ccccc1OP(=O)(Nc1ccc(C)cn1)Oc1ccccc1OC | inactive
Cc1ccc(OP(=O)(Nc2nccs2)Oc2ccc(C)cc2)cc1 | inactive
Clc1ccc(Cl)c(NC2=NCC(CBr)S2)c1 (configuration not stated) | inactive
CN1CCCC(OC(=O)C(c2ccccc2)c2ccccc2)C1 (configuration not stated) | inactive
CC(C)CC(=O)NC(Sc1ccc(Cl)cc1)C(Cl)(Cl)Cl (configuration not stated) | inactive

Structure (SMILES) | Potency
Nc1cc(N)c2nonc2c1[N+](=O)[O-] | inactive
Oc1ccccc1CNc1ccccn1 | inactive
O=C(NC(Sc1ccncn1)C(Cl)(Cl)Cl)c1ccccc1 (configuration not stated) | inactive
O=C(O)c1ccccc1[As](=O)(O)O | inactive
CC(=O)Nc1ccc([As](=O)(O)O)cc1 | inactive
CCCC1OP(N)(=O)OCC1CC (configuration not stated) | inactive
O=P(Nc1nc2ccc(Cl)cc2s1)(c1ccccc1)c1ccccc1 | inactive
CCOP(=O)(Nc1ccccc1)OCC | inactive
Cc1cc(SC(NC(=O)c2ccc(F)cc2)C(Cl)(Cl)Cl)ncn1 (configuration not stated) | inactive
Cc1ccc(NP(=O)(Oc2ccccc2F)Oc2ccccc2F)nc1 | inactive
CCN(N=Nc1nonc1N)c1nonc1N | inactive
Nc1cccc2ccc([As](=O)(O)O)cc12 | inactive
O=C(NC1CCS(=O)(=O)C1)NP(=S)(Oc1ccccc1)Oc1ccccc1 (configuration not stated) | inactive
CCNC(=S)/N=C(\N)N[N+](=O)[O-] | inactive
c1ccc(-c2nn[nH]n2)c(-c2nn[nH]n2)c1 | inactive
Cc1ccc(NP(=O)(Oc2cccc(C)c2)Oc2cccc(C)c2)nc1 | inactive
O=P1(N(CCCl)CCCl)OCCC2CCCCN21 (configuration not stated) | inactive
COC(=O)c1cc2c(s1)N=C(c1ccccc1)N(C)P2(=O)N1CCOCC1 (configuration not stated) | inactive
Cc1ccc(OP(=O)(Nc2ccccn2)Oc2ccc(C)cc2)cc1 | inactive
CC(=O)NC(SC(=S)N(CC(C)C)CC(C)C)C(Cl)(Cl)Cl (configuration not stated) | inactive
O=C(OC1CN2CCC1CC2)c1ccccc1 (configuration not stated) | inactive
CCC(=O)N1C2C3N(C(=O)CC)C1C1N(C(=O)CC)C(C(N1C(=O)CC)N3C(=O)CC)N2C(=O)CC | inactive
Cc1ccccc1OP(=O)(Nc1ccccn1)Oc1ccccc1C | inactive
CC(NC(=O)COC(=O)C(O)(c1ccccc1)c1ccccc1)c1ccccc1 (configuration not stated) | inactive
CN(C)C(=O)Oc1noc2ccccc12 | inactive

Structure (SMILES) | Potency
O=c1c2cc([N+](=O)[O-])ccc2[nH]c2c([N+](=O)[O-])cc([N+](=O)[O-])cc12 | inactive
O=P1(Nc2nc3ccc(Cl)cc3s2)COc2ccccc2O1 (configuration not stated) | inactive
CCOc1ccc(C2=NCC(CBr)S2)cc1 (configuration not stated) | inactive
CCc1cc(O)c([N+](=O)[O-])c(C)c1[N+](=O)[O-] | inactive
CC(C)(C)C(=O)NC(Sc1ccccc1)C(Cl)(Cl)Cl (configuration not stated) | inactive
N#C/C(=C\c1ccc(N(CCBr)CCBr)cc1)C(N)=O | inactive
CC(=O)c1ccc(N2CC2c2ccncc2)cc1 (configuration not stated) | inactive
COC(=O)C1(C)COP(=O)(NCc2ccccc2)OC1 (configuration not stated) | inactive
Cc1ccccc1CN(C)C(=O)COC(=O)C(O)(c1ccccc1)c1ccccc1 | inactive
C[C@@H]1C=CCP(=O)(Oc2ccccc2)O1 (some centres not stated) | inactive
C[C@H]1OP(=O)(Oc2ccccc2)C[C@@H]2O[C@@H]21 (some centres not stated) | inactive
CC(=O)Nc1ccc([As](=O)(O)O)c(O)c1 | inactive
CC(=O)Nc1ccc(Oc2c([N+](=O)[O-])cc([N+](=O)[O-])cc2[N+](=O)[O-])cc1 | inactive
O=P(Nc1nccs1)(c1ccccc1)c1ccccc1 | inactive
CC(C)C(=O)NC(Sc1ccccc1)C(Cl)(Cl)Cl (configuration not stated) | inactive
c1nnnn1CCn1cnnn1 | inactive
COc1ccc(N)c([N+](=O)[O-])c1[N+](=O)[O-] | inactive
CN(C)C1(CNC(=O)c2ccc(Cl)c(S(N)(=O)=O)c2)CCCCC1 | inactive
O=P(Nc1ccccn1)(c1ccc(Br)cc1)c1ccc(Br)cc1 | inactive
O=P(Nc1nc2ccccc2s1)(c1ccccc1)c1ccccc1 | inactive
C[C@H]1OP(=O)(Oc2ccccc2)[C@H](O)[C@H](O)[C@H]1N=[N+]=[N-] (some centres not stated) | inactive
O=[N+]([O-])c1ncn(CCn2cnc([N+](=O)[O-])n2)n1 | inactive
CC(=O)NC(SC(=S)N(C)C)C(Cl)(Cl)Cl (configuration not stated) | inactive
O=[As](O)(c1ccccc1)c1ccc(O)cc1 | inactive
Nc1ccc([As](=O)(O)c2ccc([N+](=O)[O-])cc2)cc1 | inactive

Structure (SMILES) | Potency
C(Cc1nn[nH]n1)Cc1nn[nH]n1 | inactive
Cc1nn(-c2ccccc2)c2c1P(=O)(N1CCOCC1)N(C)C(c1ccccc1)=N2 (configuration not stated) | inactive
Cc1ccc(C(=O)OC2CN3CCC2CC3)cc1 (configuration not stated) | inactive
CC1CCC(C(C)C)C(OP(=O)(Nc2ccccn2)c2ccccc2)C1 (configuration not stated) | inactive
O=C(/C=C/c1ccccc1)OC1CN2CCC1CC2 (configuration not stated) | inactive
CCCC1OP(=O)(Nc2ccccc2)OCC1CC (configuration not stated) | inactive
CN(C)C1(CNC(=O)c2ccc(S(C)(=O)=O)cc2)CCCCC1 | inactive
O=P1(Nc2ncccn2)COc2ccccc2OC1 | inactive
NS(=O)(=O)c1cccc(NC(=O)COC(=O)C(O)(c2ccccc2)c2ccccc2)c1 | inactive
O=P1(Nc2ccc(Br)cn2)COc2ccccc2OC1 | inactive
O=[As](O)(c1cccs1)c1cccs1 | inactive
Cc1ccc(OCC(=O)OC2CN3CCC2CC3)cc1 (configuration not stated) | inactive
Nc1cccc([As](=O)(O)c2ccccc2)c1 | inactive
CN(CCCl)Cc1cc(Cl)c(NC2=NCCN2)c(Cl)c1 | inactive
CCOP(=O)(Nc1ccc(C)cn1)OCC | inactive
O=P1(Nc2ccccn2)COc2ccccc2OC1 | inactive
CCOP(=O)(NC(=NC(C)c1ccccc1)NC(C)c1ccccc1)OCC (configuration not stated) | inactive
Clc1n[nH]nc1-c1nn[nH][15n]1 | inactive
CC(C)(C)C(=O)NC(Sc1ncccn1)C(Cl)(Cl)Cl (configuration not stated) | inactive
COc1ccccc1CNC(=O)COC(=O)C(O)(c1ccccc1)c1ccccc1 | inactive
CC1(CBr)Cn2c(nc3ccccc3c2=O)S1 (configuration not stated) | inactive
COc1cc(C(=O)NCC2(N3CCOCC3)CCCCC2)cc(Cl)c1OC(C)C | inactive
O=[As](O)(O)c1cccnc1 | inactive
CS(=O)(=O)c1ccc(Cl)c(NC(=O)COC(=O)C(O)(c2ccccc2)c2ccccc2)c1 | inactive
O=C(OC1CN2CCC1CC2)c1ccc(Cl)cc1 (configuration not stated) | inactive

Structure (SMILES) | Potency
O=[As](O)(c1cccc(O)c1)c1cccc(O)c1 | inactive
Cc1cccc(OCC(=O)OC2CN3CCC2CC3)c1 (configuration not stated) | inactive
CCCOP(=S)(Nc1nc(N)cc(=O)[nH]1)OCCC | inactive
Nc1cccc2c([As](=O)(O)O)cccc12 | inactive
Cc1ccc(NCCc2c([N+](=O)[O-])cc([N+](=O)[O-])cc2[N+](=O)[O-])cc1 | inactive
COc1cc(C2NCCC3(OCCO3)C2(C)C)cc(OC)c1OC (configuration not stated) | inactive
CCOP(=O)(Nc1cccc2ccccc12)OCC | inactive
CS(=O)(=O)c1cc([N+](=O)[O-])c2no[n+]([O-])c2c1 | inactive
CCOP1(=S)c2c(C)nn(CCC#N)c2N=C(c2ccccc2F)N1C (configuration not stated) | inactive
O=P(Nc1nccs1)(c1ccccc1)c1nc2ccccc2s1 (configuration not stated) | inactive
O=P(Nc1nccs1)(Oc1ccccc1)Oc1ccccc1 | inactive
O=C(O)COc1ccc([As](=O)(O)O)cc1[N+](=O)[O-] | inactive
Nc1ccccc1[As](=O)(O)c1ccccc1 | inactive
NC(=O)Nc1ccc([As](=O)(O)O)cc1 | inactive
CN(C)C(=O)c1cc([N+](=O)[O-])cc2c1-c1c(cc([N+](=O)[O-])cc1[N+](=O)[O-])C2=O | inactive
N#CCCN(C(=O)COC(=O)C(O)(c1ccccc1)c1ccccc1)c1ccc(F)cc1 | inactive
CCOP1(=S)c2c(C)nn(CCC#N)c2N=C(c2ccc(F)cc2)N1C (configuration not stated) | inactive
CN(C(=O)Cc1ccccc1)[C@@H]1CC[C@]2(CCCO2)C[C@H]1N1CCCC1 | inactive
O=[As](O)(c1ccc(O)cc1)c1ccccc1O | inactive
C[As](=O)(O)c1cccc(C(=O)O)c1 | inactive
COc1cc(C(=O)NCC2(N3CCOCC3)CCCCC2)ccc1OCC(C)C | inactive
O=[N+]([O-])c1ccc(-c2cc([N+](=O)[O-])c(O)c([N+](=O)[O-])c2)cc1 | inactive
